These results are taken from article PMC10848080 (CNS Neuroscience & Therapeutics, 2023).

This assay concerns DA in rat striatum. The experiment in a line: MALDI-MS imaging of DA in rat brain. The assay is classed as in vivo. The settings on record: 6-OHDA-lesioned rats, 1 h after treatment. As to the method:
The MALDI‐MS imaging method followed Yang W's description[24] with some modifications. The brain tissues of rats were isolated 1 h after treatment and frozen in liquid nitrogen immediately, then embedded in 2% CMC‐Na and frozen overnight at −80°C. Striatum sections (20 μm) were prepared by the cryostat microtome (Leica CM1950), then transferred onto conductive ITO glass slides (Bruker) and stored at −80°C until analysis. 2,4,6‐Trimethylpyrylium tetrafluoroborate (TMP‐TFB, Aladdin) was used as the derivatization reagent (7.6 mg/mL in methanol buffered with 3.5 μL of trimethylamine), and α‐cyano‐4‐hydroxycinnamic acid (CHCA, Aladdin; 10 mg/mL, prepared in 70% methanol solution containing 0.1% trifluoroacetic acid) was used as the MALDI matrix. MALDI‐MS imaging experiments were performed on the MALDI‐FT‐ICR mass spectrometer (Solarix 9.4 T, Bruker) in positive‐ion mode. Set the pixel size of the imaging resolution at 80 nm to obtain the optimal acquisition performance. MS imaging data were visualized using Fleximaging (Bruker). After the data were normalized by the total ion current, the DA mass spectrum peak (m/z 258.1502 ± 0.002) was determined. The colored spots in the image represent the location of the neurotransmitter, and the color of each spot is related to the signal intensity detected by the laser at each pixel.

For the compound `N[C@@H](Cc1ccc(O)c(O)c1)C(=O)O` [L‐dopa, Levodopa], the “DA level in lesioned (left side) striatum, MALDI-MS imaging” value is given as “no obvious DA signal” and the “DA level in non-lesioned (right side) striatum, MALDI-MS imaging” value is listed as “increased”.
